Reference: US20170247447A1 (Hoffmann-La Roche, published 2017)
Where two headings read alike, the source gives them in different places.

Tests used:
Assay in all cases: cell-based or functional assay
[1] = target: T1, human IL-1beta (human, UniProt P01584 117-269)
[2] = target: T1, human IL-1beta; remark: listed apart in the source
[3] = target: T1, human IL-1beta; remark: listed apart in the source
[4] = target: T1, human IL-1beta; remark: listed apart in the source

B1: Gevokizumab (antibody, V domains shown)
VH: QVQLQESGPGLVKPSQTLSLTCSFSGFSLSTSGMGVGWIRQPSGKGLEWLAHIWWDGDESYNPSLKSRLTISKDTSKNQVSLKITSVTAADTAVYFCARNRYDPPWFVDWGQGTLVTVSS
VL: DIQMTQSTSSLSASVGDRVTITCRASQDISNYLSWYQQKPGKAVKLLIYYTSKLHSGVPSRFSGSGSGTDYTLTISSLQQEDFATYFCLQGKMLPWTFGQGTKLEIK
[1]
  IC50, inhibition of ICAM-1 expression, A549 cells: 0.204 µg/mL
[2]
  EC50, reduction of IL-6 expression, A549 cells: 0.062 µg/mL
[3]
  IC50, inhibition of ICAM-1 expression, A549 cells: 940 pM
[4]
  EC50, reduction of IL-6 expression, A549 cells: 110 pM
